The record followed here is patent EP2505189B1, “Stabilizing alkylglycoside compositions and method thereof” (Aegis Therapeutics, LLC, priority 2006, dated 2007).

For this data set the following is noted: formulation stored for many months at about 4°C; intra-nasal metered spray.

`C[C@H](N)C(=O)N[C@@H](CO)C(=O)N[C@H](C(=O)N[C@H](C(=O)N[C@H](C(=O)N[C@@H](CC(N)=O)C(=O)N[C@@H](Cc1ccc(O)cc1)C(=O)N[C@H](C(=O)O)[C@@H](C)O)[C@@H](C)O)[C@@H](C)O)[C@@H](C)O` [Peptide T]: the “diminished ability to enter the plasma” value is recorded as 10 fold.
